Data published in US20230321108A1, “UNIT DOSAGE COMPOSITION OF AKT INHIBITOR” (NANJING CHIA TAI TIANQING PHARMACEUTICAL CO., LTD., priority 2020, published 2023).
pIC50: −log10 of the molar value. Read-outs that look alike come from different tables or passages of the source.

Amino acid sequences for entries named in this document (tags omitted). A change or cut given only in a name is not applied to a line headed by its entry.
UniProt P31749: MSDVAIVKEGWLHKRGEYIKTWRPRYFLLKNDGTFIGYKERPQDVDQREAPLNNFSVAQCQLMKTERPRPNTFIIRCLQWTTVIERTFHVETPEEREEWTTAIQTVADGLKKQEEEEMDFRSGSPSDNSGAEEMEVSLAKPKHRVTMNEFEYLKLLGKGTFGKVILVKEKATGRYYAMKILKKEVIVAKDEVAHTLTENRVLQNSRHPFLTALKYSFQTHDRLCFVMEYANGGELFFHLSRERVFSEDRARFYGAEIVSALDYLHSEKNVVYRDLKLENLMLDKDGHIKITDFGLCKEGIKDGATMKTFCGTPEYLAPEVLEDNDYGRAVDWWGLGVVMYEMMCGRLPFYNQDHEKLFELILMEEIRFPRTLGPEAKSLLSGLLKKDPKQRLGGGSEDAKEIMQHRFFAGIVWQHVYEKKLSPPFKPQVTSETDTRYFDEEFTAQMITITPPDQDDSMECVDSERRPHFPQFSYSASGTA
UniProt P31751: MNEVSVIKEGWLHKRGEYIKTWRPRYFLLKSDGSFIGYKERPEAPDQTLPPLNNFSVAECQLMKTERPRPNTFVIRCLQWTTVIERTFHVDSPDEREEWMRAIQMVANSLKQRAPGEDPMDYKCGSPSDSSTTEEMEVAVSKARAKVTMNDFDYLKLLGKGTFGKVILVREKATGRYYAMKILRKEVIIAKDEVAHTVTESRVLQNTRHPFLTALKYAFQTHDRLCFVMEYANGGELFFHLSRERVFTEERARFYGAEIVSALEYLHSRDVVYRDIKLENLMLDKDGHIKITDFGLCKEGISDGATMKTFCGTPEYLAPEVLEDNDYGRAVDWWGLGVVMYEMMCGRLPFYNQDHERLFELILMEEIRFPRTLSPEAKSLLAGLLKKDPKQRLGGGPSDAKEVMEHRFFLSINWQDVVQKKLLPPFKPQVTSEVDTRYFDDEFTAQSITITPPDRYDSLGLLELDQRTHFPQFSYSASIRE

Tests used:
[1] = target: AKT1 (Homo sapiens (Human), UniProt P31749); test: AKT kinase activity assay (HTRF kinEASE TK), AKT1; assay type: biochemical; details: 2 µM ATP
[2] = target: AKT2 (Homo sapiens (Human), UniProt P31751); test: AKT kinase activity assay (HTRF kinEASE TK), AKT2; assay type: biochemical; details: AKT2 enzyme activity IC50, HTRF, 20 µM ATP
Experimental: The substrate and ATP were respectively diluted with the 1× kinase reaction buffer to a concentration 5 times the reaction concentration.
A 5× enzyme working solution was prepared from the 1× kinase reaction buffer.
A 4× streptavidin-XL665 working solution was prepared from the assay buffer.
4× europium-labeled tyrosine kinase substrate antibody working solution The europium-labeled tyrosine kinase substrate antibody was 100-fold diluted with the assay reaction buffer to obtain a working solution.
After all the reagents were prepared according to the above method, except for the enzyme, the reagents were equilibrated to the room temperature and loaded.
b) 2 µL of previously prepared TK-biotin substrate solution (the concentration of the substrate for enzyme screening is shown in Table 1) was placed in each reaction well.
The plate was sealed with a sealing film, and the reaction solution was mixed until uniform and incubated at the room temperature for 10 min to allow the compound to fully react with and bind to the enzyme.
d) 2 µL of ATP solution was placed in each reaction well to initiate a kinase reaction (the concentration of ATP for enzyme screening and reaction time are shown in Table 1).
e) 5 min before the kinase reaction was completed, an assay solution was prepared. […]

[3] = AKT1 enzyme activity IC50, HTRF

Structure (SMILES)	pIC50 ([1]; HTRF, read-out: AKT1 enzyme activity IC50)	pIC50 [1, 3]	pIC50 [2]
C[C@@H]1CC(=O)Nc2ncnc(N3CCN(C(=O)[C@H](CNC4CC4)c4ccc(Cl)cc4)[C@H]4C[C@H]43)c21 (single isomer, unassigned) [Isomer 1 of Example 1]	7.21		
C[C@@H]1CC(=O)Nc2ncnc(N3CCN(C(=O)[C@H](CNC4CC4)c4ccc(Cl)cc4)[C@H]4C[C@H]43)c21 (single isomer, unassigned) [Isomer 1 of Example 2]		6.35	6.00
C[C@@H]1CC(=O)Nc2ncnc(N3CCN(C(=O)[C@H](CNC4CC4)c4ccc(Cl)cc4)[C@@H]4C[C@@H]43)c21 [Isomer 2 of Example 2, (R)-4-((1S,6R)-5-((S)-2-(4-chlorophenyl)-3(cyclopropylamino)propionyl)-2,5-diazabicyclo[4.1.0]heptan-2-yl)-5-methyl-5,8-dihydropyrido[2,3-d]pyrimidin-7(6H)-one]		9.19	
